{"source": "patent US11938115B2", "about": "“Benzoselenophene-based compound, pharmaceutical composition containing same, and antibody-drug conjugate” (priority 2020, dated 2024)", "key": {"NCI-N87 xenograft": {"test_system": "NCI-N87 xenograft", "experiment": "Anticancer effect in NCI-N87 xenograft animal model", "assay_type": "in vivo, nude mice", "details": "trastuzumab 5 mg/kg twice per week, intravenously", "procedure": "After the NCI-N87 cell line in which the antigen of trastuzumab was expressed was xenografted into nude mice, each of trastuzumab and trastuzumab-glucuronide-Compound 2 [ADC (DS-24)] were administered intravenously, followed by observation on anticancer activity. Here, trastuzumab was administered at 5 mg/kg twice per week, and ADC (DS-24) was administered once at a dose of 1 mg/kg and 5 mg/kg."}, "BT474 tumor spheroid": {"test_system": "BT474 tumor spheroid", "experiment": "Inhibition of BT474 three-dimensional tumor spheroid", "assay_type": "cell-based", "details": "0.02 nM to 100 nM, observed after 2 weeks"}}, "note": "pIC50: −log10 of the molar value.", "data": [{"substance": "trastuzumab", "values": [{"measurement": "tumor formation inhibition", "setting": "NCI-N87 xenograft", "result": "a certain degree of tumor formation inhibition, which was not significant"}, {"measurement": "pIC50", "setting": "BT474 tumor spheroid", "result": 7.74}]}]}
